Results as given in PMC5502072, “Safety, tolerability and pharmacokinetics of the fibroblast growth factor receptor inhibitor AZD4547 in Japanese patients with advanced solid tumours: a Phase I study” (Investigational New Drugs, 2017).

Test: Urinary pharmacokinetics after multiple dosing
Assay type: in vivo, human
Conditions: arithmetic mean (SD)
Experimental: Blood samples for PK analysis were collected pre-dose and at defined intervals up to 96 h following single dosing, and up to 24 h following multiple dosing. Urine samples were also collected during the 24 h after multiple dosing in order to perform urinary PK assessments. For multiple dosing, the 80 mg bid dosing level was evaluated using combined data from patients in both Part A and Part B, as FGFR amplification status was unlikely to have a significant impact on PK. Concentrations of AZD4547 in human plasma and urine were determined using a validated high-performance liquid chromatography–tandem mass spectrometry method at PRA International (Assen, The Netherlands). PK parameters were analysed by standard non-compartmental methods using WinNonlin software (Pharsight Corporation, Mountain View, CA, USA).

[1] = Part A and Part B, 80 mg bid (N = 10)

Substance: AZD4547
- CLR (steady-state renal clearance) [1]: 1.25 (±0.43) L/h and 1.248 (0.4322) L/h
- fe (steady-state fraction of dose excreted in urine) [1]: 3.66% and 3.662 (1.248) %
- CLR (steady-state renal clearance) (Part A, 40 mg bid (N = 3)): 3.23 (±0.58) L/h and 3.229 (0.5796) L/h
- fe (steady-state fraction of dose excreted in urine) (Part A, 40 mg bid (N = 3)): 3.92% and 3.921 (0.8283) %
- CLR (steady-state renal clearance) (Part A, 120 mg bid (N = 6)): 2.32 (±0.63) L/h and 2.319 (0.6347) L/h
- fe (steady-state fraction of dose excreted in urine) (Part A, 120 mg bid (N = 6)): 4.13% and 4.133 (1.676) %
- CLR (steady-state renal clearance) (Part A, 160 mg qd (N = 15)): 1.38 (±0.59) L/h and 1.383 (0.5867) L/h
- fe (steady-state fraction of dose excreted in urine) (Part A, 160 mg qd (N = 15)): 3.78% and 3.779 (2.477) %

Where “and” joins values, the source holds several entries; their conditions need not be identical. Identical values can stand only once.
